In the assay the target is human dopamine D2 (Long form) receptor (Homo sapiens, UniProt P14416). Briefly: D2 dopamine receptor binding assay ([3H]spiperone, membranes of CHO K1 cells). The source says: A cell line expressing human dopamine D2 (Long form) receptors was purchased from Oregon Health Sciences University, Portland, Oreg. The D2 receptor cDNA was subcloned into an expression vector, pRc/CMV. The plasmids were transfected by electroporation into CHO K1 cells. A single stable transfectant, resistant to the antibiotic G418, was isolated and selected for use in the binding studies. For D4 binding, CHO K1 cells stably transfected to express the human recombinant dopamine D4.2 receptor subtype, as described by Shih, et al., "The Expression and Functional Characterization of Human Dopamine D4.2 Receptor in CHO K1 Cells," Soc. Neurosci., 21(Part 1): 621 (1995). […]
After 60 minutes incubation at 25° C., the incubations were terminated by rapid filtration through Whatmann GF/B glass fibre filters (soaked for 1 hour in 0.5% polyethylenimine) on a cell harvester, with three washes of 1 mL ice-cold buffer. Individual filter disks containing the bound ligand were placed in counting vials with 4 mL of scintillation fluid (Ready Gel, Beckman Instrument Inc., Fullerton, Calif.) and then counted in a Beckman LS-6800 liquid scintillation counter at an efficiency of 45%. […]
Saturation and competition binding data were analyzed using an iterative nonlinear least-square curve-fitting Ligand program. […]

Sequences of proteins named here, by UniProt entry; tags and fusion partners are left off.
UniProt P14416, whole entry: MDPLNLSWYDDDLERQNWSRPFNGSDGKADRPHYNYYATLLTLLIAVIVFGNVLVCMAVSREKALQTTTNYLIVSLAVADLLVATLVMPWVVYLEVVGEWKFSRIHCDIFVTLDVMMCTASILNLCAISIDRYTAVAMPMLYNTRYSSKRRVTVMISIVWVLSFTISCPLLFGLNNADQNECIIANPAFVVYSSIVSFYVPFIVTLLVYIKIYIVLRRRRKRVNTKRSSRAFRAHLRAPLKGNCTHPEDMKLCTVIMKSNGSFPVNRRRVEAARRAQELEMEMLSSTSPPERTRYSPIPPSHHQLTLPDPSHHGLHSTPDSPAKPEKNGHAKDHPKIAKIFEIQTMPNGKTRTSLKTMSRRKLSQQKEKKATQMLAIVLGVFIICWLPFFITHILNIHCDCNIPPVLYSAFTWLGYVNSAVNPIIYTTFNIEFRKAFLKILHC

The structures appear in SMILES notation. Where two headings read alike, the source gives them in different places. A value given as a limit tells only on which side of the number the result lay.

On to `Cc1ccc(N2CCN(CCC3NC(=O)c4ccccc43)CC2)cc1C` (centres unmarked) [3-{2-[4-(3,4-Dimethyl-phenyl)-piperazin-1-yl]-ethyl}-2,3-dihydro-isoindol-1-one], for which, for the setting “human D2 receptor, CHO K1 membranes, 0.2 nM [3H]spiperone, 60 min, 25° C., apparent Ki from IC50 (Cheng and Prusoff)”, the Ki is 1840 nM.

Molecule `Cc1ccc(N2CCN(CCC3NC(=O)c4ccccc43)CC2)cc1C` (single isomer, unassigned; (-)) [(-)-3-{2-[4-(3,4-Dimethyl-phenyl)-piperazin-1-yl]-ethyl}-2,3-dihydro-isoindol-1-one] registered a Ki of more than 5880 nM.

Values taken from patent US6087364A, “Dopamine D4 receptor antagonists” (Warner-Lambert Company, priority 1998, dated 2000).
